Data reported in patent US9809653B2, “Anti-LAMP1 antibodies and antibody drug conjugates, and uses thereof” (SANOFI, priority 2012, dated 2017).

Target: T1, Mouse LAMP1 (Mus musculus, UniProt P11438)
T1 construct: made in house; host or cells: HEK293 (293-F), transient expression, IMAC-purified
T1 sequence (P11438 with tags, fused parts or gaps): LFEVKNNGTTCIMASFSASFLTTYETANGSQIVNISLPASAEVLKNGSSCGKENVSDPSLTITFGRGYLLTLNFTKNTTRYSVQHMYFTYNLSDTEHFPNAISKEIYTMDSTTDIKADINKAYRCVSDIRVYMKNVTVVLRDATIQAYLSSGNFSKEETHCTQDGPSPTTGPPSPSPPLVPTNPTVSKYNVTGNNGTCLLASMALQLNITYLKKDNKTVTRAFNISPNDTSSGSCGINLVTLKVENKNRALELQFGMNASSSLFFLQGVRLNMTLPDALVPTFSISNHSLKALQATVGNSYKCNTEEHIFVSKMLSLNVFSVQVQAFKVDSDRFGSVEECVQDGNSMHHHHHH
Assay: ELISA on mouse LAMP1 extracellular domain
Type: binding
Excerpt: The high level of glycosylation of the antigen required a specific approach to determine the binding site of the anti-LAMP1 mAbs on LAMP1. […] This absence of binding was used to design several chimeric LAMP1 proteins in which one or several of the LAMP1 domains (Loop1-Loop4) in the human construct were replaced by the murine counterpart. The absence of binding once the binding site of the antibody was replaced by the murine counterpart allowed for identification of the antibody binding side.
Secreted LAMP1 proteins described in example 6.2 were used to identify the binding domain to anti-LAMP1 mAbs by ELISA.

EC50 (nM) Mouse LAMP1: No binding
B1: chMAb3: chimeric antibody from MAb3, heavy chain SEQ ID NO: 49, light chain SEQ ID NO: 50 (antibody)
heavy: QIQLVQSGPELKKPGETVKISCKASGYIFTNYGMNWVKQAPGKGLKWMGWINTYTGESRYADDFKGRFALSLETSASTAYLQINNLENEDMATYFCAREDYYGNSPWFFDVWGAGTTVTVSSASTKGPSVFPLAPSSKSTSGGTAALGCLVKDYFPEPVTVSWNSGALTSGVHTFPAVLQSSGLYSLSSVVTVPSSSLGTQTYICNVNHKPSNTKVDKKV[not shown - human IgG1 Fc]
light: DIQMTQTTSSLSASLGDRVTISCNASQGINKYLNWYQQKPDGTVKLLIYYTSTLHSGVPSRFSGSGSGTDYSLTINNLEPEDIATYYCQQYTKLPFTFGSGTKLEIKRTVAAPSVFIFPPSDEQLKSGTASVVCLLNNFYPREAKVQWKVDNALQSGNSQESVTEQDSKDSTYSLSSTLTLSKADYEKHKVYACEVTHQGLSSPVTKSFNRGEC
modifications: HC chMAb3; LC chMAb3
